# Laboratory results taken from PubChem BioAssay AID624037 (The Scripps Research Institute Molecular Screening Center, 2012).
# Protein sequences, listed by entry. Tags and fused reporters are not part of them.
# UniProt P08912, whole entry: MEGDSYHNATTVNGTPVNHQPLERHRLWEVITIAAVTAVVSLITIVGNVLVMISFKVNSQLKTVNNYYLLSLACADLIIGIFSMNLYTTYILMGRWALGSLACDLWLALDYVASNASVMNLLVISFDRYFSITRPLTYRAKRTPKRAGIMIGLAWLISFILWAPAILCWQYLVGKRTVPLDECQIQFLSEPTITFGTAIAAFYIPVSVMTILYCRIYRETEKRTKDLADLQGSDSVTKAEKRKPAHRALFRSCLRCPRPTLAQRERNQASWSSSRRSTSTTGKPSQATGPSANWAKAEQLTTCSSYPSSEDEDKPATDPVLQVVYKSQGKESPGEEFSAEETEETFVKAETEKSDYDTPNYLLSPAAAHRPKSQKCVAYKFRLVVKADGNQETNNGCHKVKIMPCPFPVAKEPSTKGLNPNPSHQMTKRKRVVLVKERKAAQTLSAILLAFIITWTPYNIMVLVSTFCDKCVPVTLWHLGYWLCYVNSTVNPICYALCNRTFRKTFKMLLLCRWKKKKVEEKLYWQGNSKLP
# The entries are a selection whose mix differs from that of the whole data set. Some of these compounds have results that are not shown, active ones among them. Active and inactive are the calls of the source.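 How the source made its calls: active means activation above the run's mean over test compounds plus 3 SD (cut at about 23% in these data); inactive means the rest.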
# Molecular target: Muscarinic acetylcholine receptor M5 (Homo sapiens) (UniProt P08912)
# Assay: CHRM5 activators raising intracellular calcium – CHO-K1 cells, Fluo-8 calcium fluorescence, primary screen (AID 624037);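 further: signal is peak over basal fluorescence ratio across the kinetic read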
# Conditions: CHO-K1 hM5 cells, at 3 µM, hits give high values, 0% DMSO wells, 100% maximal acetylcholine response
row,SMILES,activation
1,O=C(OC1CN2CCC1CC2)C(CO)(c1ccccc1)c1ccccc1 (stereo not drawn),inactive: -9.12%
2,CN(C)c1cccc(C(=O)NCC2(N(C)C)CCCCC2)c1,inactive: -5.6%
3,O=C(OCCN1CCCC1)C(O)(c1ccccc1)c1ccccc1,inactive: -12.4%
4,CC(C)Oc1ccc(C(=O)NCC2(N(C)C)CCCCC2)cc1,inactive: -3.11%
5,COc1ccc(Br)c(C(=O)NCC2(N3CCCCC3)CCCCC2)c1,inactive: -1.82%
6,C=C(C)C#CC(O)(C(=O)OC1CCN(C)CC1)c1ccccc1 (stereo not drawn),inactive: -11.5%
7,COc1cc(C(=O)NCC2(N(C)C)CCCCC2)c([N+](=O)[O-])cc1OC,inactive: -3.42%
8,CN(C)C1(CNC(=O)c2ccc(Br)cc2)CCCCC1,inactive: -1.92%
9,O=C(NCC1(N2CCCCC2)CCCCC1)c1cccc(Cl)c1,inactive: -3.92%
10,COc1ccc(Cl)cc1C(=O)NCC1(N(C)C)CCCCC1,inactive: -3.67%
11,COc1cccc(C(=O)NCC2(N3CCCCC3)CCCCC2)c1,inactive: 3.34%
12,CN(C)c1ccc(C(=O)NCC2(N(C)C)CCCCC2)cc1,inactive: -1.38%
13,Cc1ccccc1C(=O)NCC1(N2CCCCC2)CCCCC1,inactive: -3.2%
14,O=C(NCC1(N2CCCCC2)CCCCC1)c1cccc(Br)c1,inactive: -3.97%
15,Cc1cc(C(=O)NCC2(N3CCCCC3)CCCCC2)ccc1[N+](=O)[O-],inactive: -3.43%
16,COc1ccc(C(=O)NCC2(N(C)C)CCCCC2)cc1,inactive: -1.87%
17,O=C(NCC1(N2CCCCC2)CCCCC1)c1cc(F)c(F)cc1Cl,inactive: -3.6%
18,C=CCN1CCN(CCOC(=O)C(O)(c2ccccc2)c2ccccc2)CC1,inactive: -10.6%
19,O=C(NCC1(N2CCCCC2)CCCCC1)c1cc([N+](=O)[O-])ccc1Cl,inactive: -5.18%
20,Cc1ccc(C(=O)NCC2(N3CCCCC3)CCCCC2)cc1,inactive: -4.2%
21,CC(C)N1C(=O)CC2(CCN(CCOC(=O)C(O)(c3ccccc3)c3ccccc3)CC2)C1=O,inactive: -4.21%
22,COc1cc(SC)ccc1C(=O)NCC1(N(C)C)CCCCC1,inactive: -3.97%
23,CCN(CC)CC(C)C(C)OC(=O)C(O)(c1ccccc1)c1ccccc1 (stereo not drawn),inactive: -16%
